In patent publication US20200024315A1, “ANTIMICROBIAL PEPTIDES AND METHODS OF TREATING GRAM-NEGATIVE PATHOGENS” (THE REGENTS OF THE UNIVERSITY OF COLORADO, a body corporate, priority 2017, published 2020):

Assay: Circular dichroism (CD) spectroscopy, characterization of helical structure
Assay type: physicochemical
Details: difference 50% TFE minus aqueous buffer

## Ac-ALKKLLSTLSSA(Orn)SS(Orn)LSTLLKALKK-amide [D56]
  inducible helical structure Δ[Θ]222 nm TFE-Aqueous: 392
